Data published in patent publication US6358492B1, “Dopamine transporter imaging ligand” (Research Triangle Institute, priority 1997, dated 2002).

Amino acid sequences for entries named in this document (tags omitted).
UniProt P23977, whole entry: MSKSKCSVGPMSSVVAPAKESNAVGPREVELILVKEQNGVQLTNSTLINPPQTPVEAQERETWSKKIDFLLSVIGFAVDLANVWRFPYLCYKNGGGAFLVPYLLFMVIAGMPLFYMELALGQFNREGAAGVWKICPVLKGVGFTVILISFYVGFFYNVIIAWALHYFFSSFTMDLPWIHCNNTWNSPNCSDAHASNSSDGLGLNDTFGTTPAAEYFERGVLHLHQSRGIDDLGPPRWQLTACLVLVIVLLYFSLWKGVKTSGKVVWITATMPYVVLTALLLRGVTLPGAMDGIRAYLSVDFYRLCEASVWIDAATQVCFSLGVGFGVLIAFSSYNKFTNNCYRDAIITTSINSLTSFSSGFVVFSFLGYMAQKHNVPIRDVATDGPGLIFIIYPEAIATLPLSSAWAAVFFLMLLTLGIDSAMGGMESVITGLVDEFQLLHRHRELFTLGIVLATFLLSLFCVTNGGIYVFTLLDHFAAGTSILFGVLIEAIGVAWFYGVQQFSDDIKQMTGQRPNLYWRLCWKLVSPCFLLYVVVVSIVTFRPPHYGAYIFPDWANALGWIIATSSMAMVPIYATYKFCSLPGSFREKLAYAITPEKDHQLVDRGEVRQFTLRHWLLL

What was measured:
serotonin transporter = conditions: ratio of IC50 values
dopamine transporter = dopamine transporter (UniProt P23977); conditions: read-out: IC50 DA [3H]WIN 35,428; 0.5 nM [3H]WIN 35,428; mean ± standard error where given
[1] = test system: norepinephrine transporter; assay: Inhibition of 0.5 nM [3H]nisoxetine binding to the norepinephrine transporter; conditions: ratio of IC50 values

SMILES: Cc1noc([C@H]2[C@@H](c3ccccc3)C[C@@H]3CC[C@H]2N3C)n1
- 5-HT/DA Ratio (serotonin transporter): 79
- IC50 (dopamine transporter): 0.1 µM
- NE/DA Ratio [1]: 38
